Assay results taken from patent publication US12275720B2, “Small molecule inhibitors of galectin-3” (BRISTOL MYERS SQUIBB, priority 2020, dated 2025).

Sequences of proteins named here, by UniProt entry; tags and fusion partners are left off.
UniProt P17931, whole entry: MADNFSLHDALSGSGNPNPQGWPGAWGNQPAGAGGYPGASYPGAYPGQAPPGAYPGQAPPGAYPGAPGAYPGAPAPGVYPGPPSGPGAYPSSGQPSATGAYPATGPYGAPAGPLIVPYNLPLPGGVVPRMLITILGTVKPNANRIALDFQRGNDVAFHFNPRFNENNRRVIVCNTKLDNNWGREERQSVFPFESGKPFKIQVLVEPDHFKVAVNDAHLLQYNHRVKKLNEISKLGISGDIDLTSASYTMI

Molecular target: His-tagged recombinant human Gal-3 (hGal-3) (Homo sapiens, UniProt P17931)
Assay: Gal 3 HTRF Assay
Conditions: read-out: hGal3 IC50 (HTRF); HTRF assay (default), 15 nM hGal-3, 15 nM B-ASF

For `CO[C@@H]1[C@@H](n2cc(-c3cccc(F)c3)nn2)[C@@H](O)[C@@H](CO)O[C@H]1C(=O)N(C)C1COCC(n2ncc3cc(F)cnc32)C1O` (single isomer, unassigned), the IC50 was 40 nM.
